One molecule from ChEMBL document CHEMBL4330073, “Discovery and development of small molecule modulators targeting glutamine metabolism” (Eur J Med Chem, 2019) can be followed below.

For this assay, the target named is T1, Glutaminase kidney isoform, mitochondrial (Homo sapiens, UniProt O94925).
T1 sequence (O94925 whole entry): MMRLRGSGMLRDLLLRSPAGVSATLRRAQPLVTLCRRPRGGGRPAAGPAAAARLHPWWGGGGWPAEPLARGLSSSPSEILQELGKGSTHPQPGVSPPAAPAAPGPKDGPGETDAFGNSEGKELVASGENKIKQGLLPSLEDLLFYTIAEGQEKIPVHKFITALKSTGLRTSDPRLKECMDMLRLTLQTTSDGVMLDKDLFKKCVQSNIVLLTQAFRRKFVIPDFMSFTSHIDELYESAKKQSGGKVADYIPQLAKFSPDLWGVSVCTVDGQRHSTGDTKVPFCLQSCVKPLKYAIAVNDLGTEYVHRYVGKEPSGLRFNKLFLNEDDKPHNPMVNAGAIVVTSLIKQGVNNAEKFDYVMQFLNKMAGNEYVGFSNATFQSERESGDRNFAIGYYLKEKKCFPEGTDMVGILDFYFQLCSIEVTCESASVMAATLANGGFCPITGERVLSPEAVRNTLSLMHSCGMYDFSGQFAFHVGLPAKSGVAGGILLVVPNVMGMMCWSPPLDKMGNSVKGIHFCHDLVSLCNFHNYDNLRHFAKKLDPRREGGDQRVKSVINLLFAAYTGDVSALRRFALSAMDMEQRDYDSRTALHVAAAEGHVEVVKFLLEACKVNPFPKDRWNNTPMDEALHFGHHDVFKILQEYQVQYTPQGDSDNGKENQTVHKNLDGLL
Description: Inhibition of GAC (unknown origin).

Each structure is given as a SMILES string.

As to `O=C(Cc1ccccc1)Nc1nnc(CCCCc2nnc(NC(=O)Cc3ccccc3)o2)o1`, the IC50 (commonly the midpoint of a concentration-inhibition curve) is over 20 µM.
